# Experimental data published in BindingDB's records for 15780631 (Universit&#224, 2005).
# By UniProt entry, the sequences of proteins in these tests, tags left out. Residues count along the entry.
# UniProt P35218, 39-305 limits assumed: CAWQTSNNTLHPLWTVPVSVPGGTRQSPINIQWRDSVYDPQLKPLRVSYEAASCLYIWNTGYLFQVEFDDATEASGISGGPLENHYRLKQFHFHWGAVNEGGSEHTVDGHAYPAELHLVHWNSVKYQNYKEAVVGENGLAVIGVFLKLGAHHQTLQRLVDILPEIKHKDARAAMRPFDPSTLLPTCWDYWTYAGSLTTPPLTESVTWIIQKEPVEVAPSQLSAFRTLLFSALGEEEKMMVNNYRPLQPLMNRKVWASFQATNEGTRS
# UniProt P22748, 19-284 limits assumed: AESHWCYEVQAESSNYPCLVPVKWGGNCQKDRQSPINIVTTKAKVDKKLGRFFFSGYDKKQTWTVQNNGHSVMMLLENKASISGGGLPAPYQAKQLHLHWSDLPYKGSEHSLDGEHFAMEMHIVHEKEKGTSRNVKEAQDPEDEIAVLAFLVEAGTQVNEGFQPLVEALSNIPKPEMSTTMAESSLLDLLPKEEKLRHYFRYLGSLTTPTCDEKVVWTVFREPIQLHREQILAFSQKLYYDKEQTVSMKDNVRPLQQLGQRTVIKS
# UniProt P00915, 2-261 limits assumed: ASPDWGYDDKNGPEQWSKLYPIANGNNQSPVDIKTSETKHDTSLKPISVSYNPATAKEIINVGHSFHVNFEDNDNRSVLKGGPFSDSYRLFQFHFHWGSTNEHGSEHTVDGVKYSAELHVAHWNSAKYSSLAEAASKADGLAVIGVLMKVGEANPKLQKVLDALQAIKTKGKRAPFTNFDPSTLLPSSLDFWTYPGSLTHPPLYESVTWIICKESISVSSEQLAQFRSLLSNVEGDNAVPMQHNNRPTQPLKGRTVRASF
# Assays:
# Carbonic anhydrase 9 = Carbonic anhydrase 9 (Homo sapiens, UniProt Q16790); test: Inhibitory constant against human isozymes carbonic anhydrase IX for the CO2 hydration reaction at 20 C
# [1] = molecular target: Carbonic anhydrase 5A, mitochondrial (Homo sapiens, UniProt P35218); test: Inhibitory constant against human isozymes carbonic anhydrase V for the CO2 hydration reaction at 20 C
# Carbonic anhydrase 4 = Carbonic anhydrase 4 (Homo sapiens, UniProt P22748); test: Inhibitory constant against human isozymes carbonic anhydrase IV for the CO2 hydration reaction at 20 degree C
# Carbonic anhydrase 1 = Carbonic anhydrase 1 (Homo sapiens, UniProt P00915)
# Carbonic anhydrase 2 = Carbonic anhydrase 2 (Homo sapiens, UniProt P00918); test: Inhibitory constant against human isozymes carbonic anhydrase II for the CO2 hydration reaction at 20 C
Molecule,Ki (Carbonic anhydrase 9),Ki [1],Ki (Carbonic anhydrase 4),Ki (Carbonic anhydrase 1),Ki (Carbonic anhydrase 2)
[Cl][Pt-2]([Cl])([Cl])([Cl])([Cl])[Cl],3.63 mM,10.8 mM,17.4 mM,13.8 mM,–
[Cl][Pt-2]([Cl])([Cl])[Cl],35.2 mM,41.7 mM,27.5 mM,0.37 mM,–
[F][Nb-2]([F])([F])([F])([F])([F])[F] [[NbF7]2-],–,0.44 mM,0.5 mM,–,–
[F][Fe-3]([F])([F])([F])([F])[F] [hexafluoridoferrate(3-)hexafluoridoferrate(III)],1.62 mM,2.71 mM,0.34 mM,–,–
AsF6-::CHEMBL181880,7.9 mM,75.6 mM,5.5 mM,–,9.4 mM
